From patent US20050282889A1, “Intracorporeal medicaments for photodynamic treatment of disease” (priority 1996, published 2005)

Assay: Absorbance properties of halogenated xanthenes (λmax, α)
Assay type: physicochemical
Description: Selected chemical and physical properties (such as chemical constituents at positions X, Y, and Z and functionalities R^1 and R^2, along with molecular weight and photochemical characteristics) of representative halogenated xanthenes are summarized in attached Table 1. Certain general properties of this class of agents are discussed in further detail in U.S. Ser. No. 09/130,041, filed on Aug. 6, 1998, U.S. Ser. No. 09/184,388, filed on Nov. 2, 1998, and U.S. Ser. No. 09/216,787, filed on Dec. 21, 1998, which are herein incorporated by reference in their entirety. […]
Further, as evidenced by the data shown in Table 1 (infra) and in FIG. 2, halogenated xanthenes share common spectroscopic properties, including a high single-photon cross-section extending from approximately 500 nm to 600 nm. […] Such excitation methods provide additional utility in the activation of medicaments formulated from these agents, for example when it is desirable to increase the depth of photoactivation to positions substantially beyond that readily accessible using visible light excitation methods.

**Q.** Which “λmax (nm) EtOH” value does the source give for Rose Bengal Lithium Salt here?
**A.** Its value is 559 nm.
